This passage reports IC50 results from US20060110401A1, “Mixture of peptides from c and ns3 proteins of the hepatitis c virus and applications thereof” (priority 2002, published 2006).

For assay [1], the system named is DR3. Kind of assay: DR3.
Assay [2] relates to DR4. Put plainly: DR4.
Assay [3] has as its system DR11. Put plainly: DR11.
Assay [4] has as its system DP401. Put plainly: DP401.
Assay [5] deals with DR7. Put plainly: DR7.
In assay [6] the test system is DRB4. Put plainly: DRB4.
Assay [7] concerns DRB5. Kind of assay: DRB5.

As usually defined, the IC50 is the concentration at which inhibition is half-maximal. Read a high IC50 as weaker potency in that assay. For `CC[C@H](C)[C@H](NC(=O)[C@@H](NC(=O)[C@H](CCCCN)NC(=O)CNC(=O)[C@H](CC(C)C)NC(=O)[C@H](CC(N)=O)NC(=O)[C@H](CCCNC(=N)N)NC(=O)[C@H](CCCNC(=N)N)NC(=O)[C@H](CCCNC(=N)N)NC(=O)[C@@H]1CCCN1C(=O)[C@H](CC(=O)O)NC(=O)[C@@H](NC(=O)[C@@H]1CCCN1C(=O)CNC(=O)[C@H](Cc1c[nH]c2ccccc12)NC(=O)[C@H](CO)NC(=O)[C@@H]1CCCN1C(=O)[C@@H](N)CCCNC(=N)N)[C@@H](C)O)C(C)C)C(=O)N[C@@H](CC(=O)O)C(=O)N[C@H](C(=O)N[C@@H](CC(C)C)C(=O)N[C@H](C(=O)N[C@@H](CS)C(=O)NCC(=O)N[C@@H](Cc1ccccc1)C(=O)N[C@@H](C)C(=O)N[C@@H](CC(=O)O)C(=O)N[C@@H](CC(C)C)C(=O)O)[C@@H](C)O)[C@@H](C)O` [4C 104-133], the half-maximal inhibitory concentration (IC50) in assay [1] came to 5170 nM; in assay [2], 1030 nM; in assay [3], 867 nM; in assay [4] it was 13900 nM; in assay [5] it was 125 nM; in assay [6] it was 3330 nM. The same compound had an IC50 in assay [7] of 433 nM.
